{
  "source": "patent US10426790B2",
  "about": "“Treatment of allergic eye conditions with cyclodextrins” (Aldeyra Therapeutics, Inc., priority 2016, dated 2019)",
  "system": "hydroxypropyl-γ-cyclodextrin/NS2 complexes",
  "assay": "Example 4 Study 2: allergen displacement of NS2, HP-γ-CD:NS2 30:1, protein:NS2 2:1",
  "assay_type": "physicochemical",
  "details": "up to 96 hours, with Birch, Ragweed, Timothy allergen proteins",
  "procedure": "Study 1 was conducted using a 19:1 SBE-β-CD/NS2 ratio, at starting concentrations equivalent to the clinical formulation. Protein concentration was at 6 mg/mL. […] Study 3 was conducted at a lower NS2 concentration while using the same allergen protein concentrations, to determine whether the effect was present at the lower concentration. A 19:1 SBE-β-CD/NS2 ratio was still in effect, but the ratio of protein to NS2 was 6:1 due to the lower NS2 concentration. […] Stock solutions of each allergen protein were prepared and filtered to remove any non-protein, insoluble portions originating from the lyophilizate. Each protein solution was prepared at a concentration of about 14 mg/mL in 30 mM Phosphate Buffer, pH 7.0, based on the label claim of protein content in each lyophilizate. Stock solution of NS2 (5.24 mg/mL) and HP-γ-CD (150 mg/mL) was prepared in 30 mM phosphate buffer, pH 7.0. This represents about a 29:1 HP-γ-CD:NS2 ratio in the solution. […] Samples were vortexed to mix thoroughly, then kept at 25° C., protected from light. Samples (˜0.5 mL) were taken at T=0 (control), 3 h, 24 h, and 96 h. Each sample was centrifuged and the supernatant filtered through a PVDF syringe filter. […] Samples at T=0 were used as controls, then the recovery percentages were calculated based on T=0 control.",
  "data": [
    {"substance": "Hydroxypropyl-γ-cyclodextrin [HP-γ-CD]", "values": [
      {"measurement": "effect on NS2 solubility, in words", "value": "did not show any significant drops in NS2 solubility"}
    ]}
  ]
}
